Assay results reported in ChEMBL document CHEMBL1124044, “4-N-hydroxy-L-2,4-diaminobutyric acid. A strong inhibitor of glutamine synthetase” (J Med Chem, 1988).

Legend:
[1] = test system: Glutamine synthetase (Ovis aries); conditions: at 0.2 mM
[2] = test system: Glutamine synthetase (Glycine max); conditions: at 0.1 mM
[3] = test system: Glutamine synthetase (Ovis aries); conditions: at 0.1 mM
[4] = test system: Glutamine synthetase (Glycine max); conditions: at 0.5 mM
[5] = test system: Glutamine synthetase (Glycine max); conditions: at 0.2 mM
[6] = test system: Glutamine synthetase (Ovis aries); conditions: at 0.5 mM

NC(CCNO)C(=O)O (stereo unspecified)
inhibition [1]: 92% | inhibition [2]: 47% | inhibition [3]: 80% | inhibition [4]: 84% | inhibition [5]: 64% | inhibition [6]: 100%
